Patent US20130274233A1, “MODULATORS OF HEDGEHOG SIGNALING PATHWAY” (priority 2012, published 2013)

Protein sequences, listed by entry. Tags and fused reporters are not part of them. Residues count along the entry.
UniProt Q99835, 28-787 limits assumed: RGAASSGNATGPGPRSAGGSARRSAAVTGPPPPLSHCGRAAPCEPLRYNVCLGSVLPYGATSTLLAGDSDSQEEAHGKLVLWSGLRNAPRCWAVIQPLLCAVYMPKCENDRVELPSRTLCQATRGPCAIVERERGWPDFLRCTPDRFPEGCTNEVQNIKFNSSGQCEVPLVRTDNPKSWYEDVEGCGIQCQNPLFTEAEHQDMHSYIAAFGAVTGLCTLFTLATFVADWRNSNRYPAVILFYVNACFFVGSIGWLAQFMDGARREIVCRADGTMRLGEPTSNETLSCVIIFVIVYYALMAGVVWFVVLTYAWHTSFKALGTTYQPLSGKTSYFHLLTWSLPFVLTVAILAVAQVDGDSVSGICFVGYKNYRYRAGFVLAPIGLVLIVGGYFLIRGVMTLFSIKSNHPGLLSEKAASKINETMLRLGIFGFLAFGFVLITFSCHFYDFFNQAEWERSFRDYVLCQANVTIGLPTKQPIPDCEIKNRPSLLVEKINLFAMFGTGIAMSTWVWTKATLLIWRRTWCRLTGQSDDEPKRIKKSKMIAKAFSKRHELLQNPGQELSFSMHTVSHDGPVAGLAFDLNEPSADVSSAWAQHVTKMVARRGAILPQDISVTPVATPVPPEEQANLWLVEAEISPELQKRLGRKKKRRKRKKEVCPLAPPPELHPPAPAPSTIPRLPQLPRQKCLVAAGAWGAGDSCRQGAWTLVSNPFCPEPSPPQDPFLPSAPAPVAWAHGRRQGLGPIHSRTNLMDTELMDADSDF

Target: Smo::EGFP (Homo sapiens, UniProt Q99835)
Assay: High content assay of Shh-induced Smo::EGFP accumulation in the primary cilium (Smo::EGFP/Ivs::tagRFPT NIH/3T3 cells)
Assay type: cell-based
Conditions: Smo::EGFP/Ivs::tagRFPT cells primed with compounds for 3 hours before adding Shh; for EC50: read-out: EC50, inhibitory activity of Smo cilial localization induced by Shh (SAR assays)

EC50 | Compound | Smo antagonist activity in SAR assays
18.6 µM | CCCCN(C)CCC(=O)Nc1ccc(Br)cc1 | 
6.22 µM | O=C(CCN1CCCC1)Nc1ccc(Br)cc1 | retained, but weaker, Smo antagonistic activity
32.8 µM | CN(CCC(=O)Nc1ccccc1)Cc1ccccc1 | 
2.28 µM | CN(CCC(=O)Nc1ccc(Br)cc1)Cc1ccccc1 | 
